Earlier results on 1 substance are cited in PMC12028738 (Marine Drugs, 2025).

Like-named read-outs stand apart in the source and are kept apart here.

For the data set, the target named is immobilized PD-L1 proteins. The conditions noted are these: PD-1 with immobilized PD-L1, read-out: equilibrium dissociation constant (KD), cited from earlier work. The text has this: In recent years, anti-PD-1 and anti-PD-L1 antibodies have achieved great clinical success in cancer immunotherapy. In addition, peptide and small molecule inhibitors of PD-1/PD-L1 also attract much attention. Antitumor peptides have some advantages in comparison with antibodies, e.g., low production costs, easy to transport and store, and good stability. Programmed death ligand 1 (PD-L1) is a transmembrane protein consisting of 290 amino acids, also known as B7 homolog 1 (B7-H1) or cluster of differentiation (CD274). PD-L1 together with PD-L2 (CD273) serve as ligands of pr ...

Take programmed death 1 [PD-1]: the Kd – broadly, the concentration at which binding is half-saturated – by setting is: (ref 36) 1560 nM; (ref 37) 1150 nM; (ref 38) 8200 nM.
